Results reported in article PMC11739112, “High-affinity promotor binding of YhaJ mediates a low signal leakage for effective DNT detection” (Frontiers in Microbiology, 2024).

Biological target: the molecule itself
Experiment: SEC

B1: YhaJ DNA binding domain linked to a linker region (YhaJ-DBD, residues 1-93) (domain or fragment)
chain: MAKERALTLEALRVMDAIDRRGSFAAAADELGRVPSALSYTMQKLEEELDVVLFDRSGHRTKFTNVGRMLLERGRVLLEAADKLTTDAEALAR
  stoichiometry N: 2
